Results published in PubChem BioAssay AID456 (Sanford-Burnham Center for Chemical Genomics, 2006).
The list shows a part of the results, in another mix than the full data. Potency and affinity values are given separately. Calls of active or inactive are those of the source.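 Rule for the calls: active = top tenth filtered wells with inhibition above zero that passed visual or statistical confirmation; inactive = the rest, including hits rejected on review.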

Assay: suppression of endothelial VCAM-1 upregulation – imaging, high-content imaging, pooled HUVEC, TNFa stimulus (AID 456);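 note: VCAM-1 immunofluorescence minus red nonspecific channel after plate median normalization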
Conditions: HUVEC TNFa-induced VCAM-1 surface expression, immunofluorescence imaging;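 compounds screened at 5 µM final in the well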

Compound | inhibition
O=P(Nc1nccs1)(c1ccccc1)c1ccccc1 | inactive: 0%
COP1(=S)c2c(C)nn(CCC#N)c2N=C(c2ccc(F)cc2)N1C (stereo not given) | inactive: 0%
O=C(COc1ccccc1)OC1CN2CCC1CC2 (stereo not given) | inactive: 0%
Cc1nn(-c2ccccc2)c2c1P(=O)(N1CCOCC1)N(C)C(c1ccccc1)=N2 (stereo not given) | inactive: 0%
CCOP1(=S)c2c(C)nn(CCC#N)c2N=C(c2ccccc2F)N1C (stereo not given) | inactive: 0%
